Test results as given in publication PMC12325899 (Scientific Reports, 2025).

Amino acid sequences for entries named in this document (tags omitted). A change or cut given only in a name is not applied to a line headed by its entry.
UniProt Q9UNQ0: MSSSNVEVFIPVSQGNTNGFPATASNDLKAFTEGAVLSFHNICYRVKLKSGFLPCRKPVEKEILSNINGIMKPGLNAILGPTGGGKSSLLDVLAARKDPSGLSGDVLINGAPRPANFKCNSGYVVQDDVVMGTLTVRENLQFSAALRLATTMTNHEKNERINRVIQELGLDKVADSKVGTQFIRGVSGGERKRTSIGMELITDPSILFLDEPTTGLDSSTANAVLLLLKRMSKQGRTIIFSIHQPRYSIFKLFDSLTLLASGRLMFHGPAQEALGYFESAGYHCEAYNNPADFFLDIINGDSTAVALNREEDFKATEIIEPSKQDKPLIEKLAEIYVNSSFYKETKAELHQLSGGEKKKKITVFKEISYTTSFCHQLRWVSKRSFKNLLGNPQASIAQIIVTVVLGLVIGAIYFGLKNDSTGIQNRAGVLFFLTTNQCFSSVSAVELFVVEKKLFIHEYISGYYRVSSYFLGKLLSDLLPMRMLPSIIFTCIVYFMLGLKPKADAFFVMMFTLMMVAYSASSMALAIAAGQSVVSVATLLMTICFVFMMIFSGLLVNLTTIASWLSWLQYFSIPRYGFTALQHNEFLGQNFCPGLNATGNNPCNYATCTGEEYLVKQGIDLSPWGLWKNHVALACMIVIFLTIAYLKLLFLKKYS

Target: BCRP (Homo sapiens, UniProt Q9UNQ0)
Experiment: BCRP inhibition, prazosin accumulation assay in MDCKII-BCRP cells
Conditions: novobiocin 5 µM, prazosin 5 µM

CO[C@@H]1[C@@H](OC(N)=O)[C@@H](O)[C@H](Oc2ccc3c(O)c(NC(=O)c4ccc(O)c(CC=C(C)C)c4)c(=O)oc3c2C)OC1(C)C [Novobiocin, reference compound] was tested, and the “prazosin accumulation in MDCKII-BCRP with positive control inhibitor” value was “restored prazosin accumulation to levels similar to those observed in MDCKII-mock cells”.
